{"source": "patent US10167295B2", "about": "(priority 2013, dated 2019)", "key": {"[1]": {"molecular_target": "T1, MOR (Homo sapiens, UniProt P35372)", "test": "Primary binding (PDSP)", "settings": "for MOR mean % inhibition: 10 μM, N = 4 determinations, negative = stimulation of binding; for MOR: Table 7, rounded values of Table 4"}, "[2]": {"molecular_target": "T1, MOR", "test": "Radioligand competition binding, Ki (PDSP)", "settings": "read-out: MOR Ki"}, "[3]": {"test_system": "Sprague-Dawley rats", "test": "Randall-Selitto paw-withdrawal assay, mechanical nociceptive threshold", "settings": "for Nociceptive testing (analgesia / anti-analgesia): FIG. 17"}, "[4]": {"settings": "Cheng-Prusoff from best fit IC50"}}, "note": "pKi: −log10 of the molar value. Where two headings read alike, the source gives them in different places.", "data": [{"smiles": "Cc1cccc(CC(=O)N(C)[C@H](CN2CCCC2)c2ccccc2)c1", "values": [{"measurement": "MOR mean % inhibition", "setting": "[1]", "result": 85.3, "unit": "%"}, {"measurement": "MOR", "setting": "[1]", "result": 85}, {"measurement": "pKi", "setting": "[2]; [4]", "result": 6.22}, {"measurement": "pKi", "setting": "[2]; Table 7, values of Table 5", "result": 6.22}]}, {"smiles": "CN(C(=O)Cc1cccc2occc12)[C@@H](CN1CCCCC1)c1ccccc1", "values": [{"measurement": "MOR mean % inhibition", "setting": "[1]", "result": 17.2, "unit": "%"}, {"measurement": "MOR", "setting": "[1]", "result": 17}]}, {"smiles": "Cc1cccc(CC(=O)N(C)[C@H](CN2CCCCC2)c2ccccc2)c1", "values": [{"measurement": "MOR mean % inhibition", "setting": "[1]", "result": 53.8, "unit": "%"}, {"measurement": "MOR", "setting": "[1]", "result": 54}, {"measurement": "pKi", "setting": "[2]; [4]", "result": 5.61}, {"measurement": "pKi", "setting": "[2]; Table 7, values of Table 5", "result": 5.61}]}, {"smiles": "CN(C(=O)C1CCCN1Cc1ccccc1)[C@H](CN1CCCC1)c1ccccc1", "note": "(stereo partly shown)", "values": [{"measurement": "MOR mean % inhibition", "setting": "[1]", "result": 66.5, "unit": "%"}, {"measurement": "MOR", "setting": "[1]", "result": 67}, {"measurement": "pKi", "setting": "[2]; [4]", "result": 5.71}]}, {"smiles": "CN(C(=O)Cc1ccc(Cl)c(Cl)c1)[C@H](CN1CCCCC1)c1ccccc1", "values": [{"measurement": "MOR mean % inhibition", "setting": "[1]", "result": 92.9, "unit": "%"}, {"measurement": "MOR", "setting": "[1]", "result": 93}, {"measurement": "pKi", "setting": "[2]; [4]", "result": 6.81}, {"measurement": "pKi", "setting": "[2]; Table 7, values of Table 5", "result": 6.81}]}, {"smiles": "CN(C(=O)C1CCCN1Cc1ccccc1)[C@@H](CN1CCCC1)c1ccccc1", "note": "(stereo partly shown)", "values": [{"measurement": "MOR mean % inhibition", "setting": "[1]", "result": 31.9, "unit": "%"}, {"measurement": "MOR", "setting": "[1]", "result": 32}]}, {"smiles": "CN(C(=O)Cc1cccc2occc12)[C@H](CN1CCCC1)c1ccccc1", "values": [{"measurement": "MOR mean % inhibition", "setting": "[1]", "result": 87.7, "unit": "%"}, {"measurement": "MOR", "setting": "[1]", "result": 88}, {"measurement": "pKi", "setting": "[2]; [4]", "result": 6.47}, {"measurement": "pKi", "setting": "[2]; Table 7, values of Table 5", "result": 6.47}]}, {"smiles": "CN(C(=O)Cc1ccccc1)[C@H](CN1CCCC1)c1ccccc1", "note": "[listing 1 of 2 here]", "values": [{"measurement": "pKi", "setting": "[2]; [4]", "result": 5.76}, {"measurement": "pKi", "setting": "[2]; Table 7, values of Table 5", "result": 5.75}]}, {"smiles": "CN(C(=O)Cc1ccccc1)[C@H](CN1CCCC1)c1ccccc1", "note": "[listing 2 of 2 here]", "values": [{"measurement": "MOR mean % inhibition", "setting": "[1]", "result": 69.2, "unit": "%"}, {"measurement": "MOR", "setting": "[1]", "result": 69}]}, {"smiles": "CN(C(=O)Cc1cccc2occc12)[C@@H](CN1CCCC1)c1ccccc1", "values": [{"measurement": "MOR mean % inhibition", "setting": "[1]", "result": 25.5, "unit": "%"}, {"measurement": "MOR", "setting": "[1]", "result": 26}]}, {"smiles": "CN(C(=O)Cc1ccc2occc2c1)[C@H](CN1CCCCC1)c1ccccc1", "values": [{"measurement": "MOR mean % inhibition", "setting": "[1]", "result": 69.9, "unit": "%"}, {"measurement": "MOR", "setting": "[1]", "result": 70}, {"measurement": "pKi", "setting": "[2]; [4]", "result": 5.69}, {"measurement": "pKi", "setting": "[2]; Table 7, values of Table 5", "result": 5.69}]}, {"smiles": "Cc1cccc(CC(=O)N(C)[C@@H](CN2CCCCC2)c2ccccc2)c1", "values": [{"measurement": "MOR mean % inhibition", "setting": "[1]", "result": 29.6, "unit": "%"}, {"measurement": "MOR", "setting": "[1]", "result": 30}, {"measurement": "Nociceptive testing (analgesia / anti-analgesia)", "setting": "[3]", "result": "significant analgesia without significant anti-analgesia"}]}, {"smiles": "CN(C(=O)Cc1ccc2occc2c1)[C@@H](CN1CCCCC1)c1ccccc1", "values": [{"measurement": "MOR mean % inhibition", "setting": "[1]", "result": 29.8, "unit": "%"}, {"measurement": "MOR", "setting": "[1]", "result": 30}, {"measurement": "Nociceptive testing (analgesia / anti-analgesia)", "setting": "[3]", "result": "almost no analgesia but a typical anti-analgesic effect"}, {"measurement": "onset of anti-analgesia after administration", "setting": "[3]; rats (male)", "result": "about 90 minutes"}]}, {"smiles": "CN(C(=O)Cc1ccc(Cl)c(Cl)c1)[C@@H](CN1CCCCC1)c1ccccc1", "values": [{"measurement": "MOR mean % inhibition", "setting": "[1]", "result": 44.6, "unit": "%"}, {"measurement": "MOR", "setting": "[1]", "result": 45}]}, {"smiles": "O=C(Cc1ccc(Cl)c(Cl)c1)N1CCCC[C@H]1CN1CCCC1", "values": [{"measurement": "MOR mean % inhibition", "setting": "[1]", "result": 70, "unit": "%"}, {"measurement": "MOR", "setting": "[1]", "result": 70}, {"measurement": "pKi", "setting": "[2]; [4]", "result": 5.60}, {"measurement": "pKi", "setting": "[2]; Table 7, values of Table 5", "result": 5.60}]}, {"smiles": "CN(C(=O)Cc1ccccc1)[C@@H](CN1CCCC1)c1ccccc1", "values": [{"measurement": "MOR mean % inhibition", "setting": "[1]", "result": 4.2, "unit": "%"}, {"measurement": "MOR", "setting": "[1]", "result": 4}]}, {"smiles": "CN(C(=O)Cc1cccc2occc12)[C@H](CN1CCCCC1)c1ccccc1", "values": [{"measurement": "MOR mean % inhibition", "setting": "[1]", "result": 55.6, "unit": "%"}, {"measurement": "MOR", "setting": "[1]", "result": 56}, {"measurement": "pKi", "setting": "[2]; [4]", "result": 5.66}, {"measurement": "pKi", "setting": "[2]; Table 7, values of Table 5", "result": 5.66}]}]}
